Experiment [1] deals with rBDD FVIII (recombinant B-domain deleted FVIII lacking Fc moieties) (human) (UniProt P00451). As to the kind of experiment: cell-based or functional assay.
In experiment [2] the target is single chain rFVIIIFc (purified non-processed isoform of rFVIIIFc) (human) [IgG part: P0DOX5]. As to the kind of experiment: cell-based or functional assay.
Experiment [3] deals with rFVIIIFc (recombinant B-domain deleted human FVIII-Fc monomer hybrid), drug substance (human) (UniProt P00451). In words: cell-based or functional assay.
Experiment [4] addresses human von Willebrand factor, FVIII-free, plasma derived (human) (UniProt P04275). In words: SPR (BIAcore), single-cycle kinetics 0.13-5.0 nM, plasma derived human vWF immobilized by amine coupling, 1:1 model, N=6. Background: SPR reads the build-up and loss of mass on a sensor chip optically.
Experiment [5] shares this target. In words: SPR (BIAcore), binding to vWF.
For experiment [6] the target is unchanged. As to the kind of experiment: cell-based or functional assay.
The target is the same in experiment [7]. In words: SPR (BIAcore), hvWf as ligand, FVIII protein as analyte, N=5.

As to “human α-thrombin (from UniProt P00734 328-622) (enzyme)”, in experiment [1], the thrombin half maximal effective concentration (EC50) for release from immobilized vWF, SPR, 25° C. was 3.3 U/mL; the thrombin half maximal effective concentration (EC50) for release from immobilized vWF, SPR, 37° C. is 4 U/mL; the α-thrombin EC50 for release of FVIII from immobilized VWF, optical biosensor amounted to 3.2 U/mL. Moreover, in experiment [2], the fold of thrombin EC50 for release from vWF against rFVIIIFc worked out at 3 fold; the fold of α-thrombin EC50 for release from VWF against rFVIIIFc and rBDD-FVIII was over 3 fold; the thrombin half maximal effective concentration (EC50) for release from immobilized vWF, SPR, 25° C. stood at 12 U/mL; the thrombin half maximal effective concentration (EC50) for release from immobilized vWF, SPR, 37° C. was found to be 15 U/mL. The substance also registered a α-thrombin EC50 for release of FVIII from immobilized VWF, optical biosensor in experiment [2] of 11.7 U/mL. Besides, in experiment [3], the thrombin half maximal effective concentration (EC50) for release from immobilized vWF, SPR, 25° C. worked out at 3.9 U/mL; the thrombin half maximal effective concentration (EC50) for release from immobilized vWF, SPR, 37° C. was found to be 4.8 U/mL; the α-thrombin EC50 for release of FVIII from immobilized VWF, optical biosensor is 3.7 U/mL.
In general, Kd refers to the constant that tells how readily two partners part at equilibrium. The low end stands for higher affinity, the high end for lower affinity. The koff is the first-order rate constant of dissociation. Higher therefore signals a short-lived complex. By kon is commonly meant the rate constant with which the complex forms. Lower therefore signals slow association. Turning to “single chain rFVIIIFc (purified non-processed isoform of rFVIIIFc) (from UniProt P0DOX5 223-449) (Fc fusion)”, in experiment [4], the Kd stood at 310 pM, the koff turned out to be 0.00084 s⁻¹ and the association rate constant (kon) is 2.7e+06 M⁻¹ s⁻¹. In addition, the fold of KD against BDD FVIII alone in experiment [5] turned out to be 2 fold. Besides, in experiment [6], the Coagulation (aPTT) Specific Activity, FVIII and vWF depleted plasma (vWF absent) amounted to 13600 IU/mg; the Coagulation (aPTT) Specific Activity, FVIII-depleted plasma (vWF present) stood at 3110 IU/mg; the Coagulation (aPTT) Specific Activity, FVIII/VWF-depleted plasma supplemented with human VWF amounted to 3130 IU/mg; the decrease in one-stage clotting assay (APTT) activity in plasma with normal VWF level was 60%. In experiment [7], this substance displayed a Kd of 1280 pM, a koff of 0.00109 s⁻¹ and a kon of 866000 M⁻¹ s⁻¹.

The record behind these values is patent US20140294821A1.
